Screen for blockers of NLRP3-driven cell death, PubChem AID 2061109 (Seoul National University).
Cells: mouse bone marrow macrophages; stimulus: LPS priming, then nigericin; dose: 5 µM; read-out: propidium iodide uptake by live imaging.
Inhibition in %: 0 = stimulated control, 100 = untreated cells; values below 0 were filed as 0. * marks the depositor's active call (above 70%). Part of the library is listed.

| smiles | inhibition (%) |
|---|---|
| O=c1cc(-c2ccc(O)c(O)c2)oc2cc(O[C@@H]3O[C@H](CO)[C@@H](O)[C@H](O)[C@H]3O)cc(O)c12 | 5.4 |
| CC(C)Cn1c(=O)n(C)c(=O)c2[nH]cnc21 | 5.2 |
| CC(C)c1ncc(Cc2ccccc2)[nH]c1=O | 5.1 |
| Cn1cncc1[C@](N)(c1ccc(Cl)cc1)c1ccc2c(c1)c(-c1cccc(Cl)c1)cc(=O)n2C | 4.9 |
| C#Cc1cccc(Nc2ncnc3cc(OC)c(NC(=O)N4CCN(CC)CC4)cc23)c1.O=C(O)CCC(=O)O | 4.9 |
| COC(=O)C1=C(C#N)NC(C)=C(C(=O)OC(C)C)C1c1cccc([N+](=O)[O-])c1 | 4.3 |
| COc1ccc2cccc(CCNC(C)=O)c2c1.Cl | 4.0 |
| C=C(Cc1ccccc1Cl)C(=O)OCC | 4.0 |
| CCOC(=O)C1=C(C)NC2=C(C(=O)CC(C)(C)C2)C1c1ccc(-c2ccccc2)cc1 | 4.0 |
| C=CC(=O)N1CCN(c2nc(=O)n(-c3c(C)ccnc3C(C)C)c3nc(-c4c(O)cccc4F)c(F)cc23)[C@@H](C)C1 | 3.7, 0.0 |
| Cc1ccc(-c2nnc(NC(=O)c3ccc(Br)s3)o2)cc1 | 3.5 |
| C#CCCCn1cnc(=N)c2[nH]c(Sc3ccc(C)cc3C)nc21 | 3.4 |
| C=CC(=O)Nc1cc(Nc2nccc(-c3cn(C4CC4)c4ccccc34)n2)c(OC)cc1N(C)CCN(C)C.CS(=O)(=O)O | 3.4 |
| Nc1nc(Cl)nc2c1ncn2[C@H]1C[C@H](O)[C@@H](CO)O1 | 3.4 |
| NC(=O)c1[nH]cc(-c2ccncc2)c1C(F)(F)F | 3.3 |
| O=C(CCCCC(=O)Nc1scc(-c2cccs2)c1C(=O)O)Nc1scc(-c2cccs2)c1C(=O)O | 3.0 |
| CC(C)Oc1ccc(C=O)cc1 | 3.0 |
| Cc1ccnn1-c1ccc(C(=O)N2CCN(S(=O)(=O)c3ccc(Cl)c(C(F)(F)F)c3)CC2)cc1 | 2.9 |
| CNC(=O)O[C@@H]1CCC[C@H]1[C@@]1(C2CCN(CC3CN(c4ccc(S(=O)(=O)c5ccncc5)cc4)C3)CC2)CN(C)Cc2ccccc21 | 2.8 |
| O=C1O[C@H]([C@@H](O)CO)C(O)=C1O | 2.7 |
| CC[C@]1(O)C[C@H]2CN(CCc3c([nH]c4ccccc34)[C@@](C(=O)OC)(c3cc4c(cc3OC)N(C)[C@H]3[C@@](O)(C(=O)OC)[C@H](OC(C)=O)[C@]5(CC)C=CCN6CC[C@]43[C@@H]65)C2)C1.O=S(=O)(O)O | 2.6 |
| Cc1nsc(-c2nnc3n2CCN(C(=O)c2ccc(F)cc2)[C@@H]3C)n1 | 2.6 |
| CCCCCCCC(=O)N[C@H](CN1CCCC1)[C@H](O)c1ccc2c(c1)OCCO2 | 2.5 |
| Cl.O=C(O)/C=C/c1ccc(Cn2ccnc2)cc1 | 2.5 |
| CC(CN(C)C)CN1c2ccccc2CCc2ccccc21.O=C(O)/C=C\C(=O)O | 1.9 |
| O=C(NCc1cccc(O)c1)c1cc2cc(F)ccc2[nH]1 | 1.8 |
| N[C@@H](CCCCNC(=O)OCc1ccc([N+](=O)[O-])cc1)C(=O)N1CCCC1 | 1.7 |
| O=C1NCCc2[nH]c(-c3ccnc(-c4cnc5ccccc5c4)c3)cc21 | 1.5 |
| O=C(Nc1ccccc1)Nc1ccc(-c2ccc(C(=O)[C@@H]3CCC[C@H]3C(=O)O)cc2)cc1 | 1.4 |
| Cn1cnc([N+](=O)[O-])c1Sc1ncnc2nc[nH]c12 | 1.3 |
| Cc1cc(C)c(CNC(=O)c2cc(Cl)c3c(c2C)O[C@@](C)(C2CCC(N(C)C)CC2)O3)c(=O)[nH]1 | 1.3 |
| COc1ccc2[nH]cc(CCNC(C)=O)c2c1 | 1.0 |
| COC1CCN(C(=O)c2cc(Cc3n[nH]c(=O)c4ccccc34)ccc2F)CC1 | 1.0 |
| Cc1ccc2c(c1CCC(=O)O)CC[C@@H](NS(=O)(=O)c1ccc(Cl)cc1)C2 | 0.9 |
| Cl.Cl.NC1CCC(N[C@@H]2C[C@H]2c2ccccc2)CC1 | 0.9 |
| CN(C)CCC=C1c2ccccc2CCc2ccccc21.Cl | 0.8 |
| CC(=O)O[C@H]1[C@H]2O[C@]23[C@@H]2CC[C@]4(O)C[C@@H](O)CC[C@]4(C)[C@H]2CC[C@]3(C)[C@H]1c1ccc(=O)oc1 | 0.8 |
| CC(C)(C(=O)O)c1ccc(C(=O)CCCN2CCC(OC(c3ccccc3)c3ccccc3)CC2)cc1 | 0.6 |
| CS(=O)(=O)Nc1ccc2oc3c(OC(F)F)ccc(C(=O)Nc4c(Cl)cncc4Cl)c3c2c1 | 0.5 |
| Cc1ccc(Sc2ccccc2N2CCNCC2)c(C)c1 | 0.5 |
| Cl.Clc1cccc(-c2nnnn2Cc2cccnc2)c1Cl | 0.5 |
| CCOC(=O)c1sc(NC(=O)c2sccc2C)cc1C | 0.4 |
| CN1C/C(=C/c2ccc(B(O)O)cc2)C(=O)/C(=C\c2ccc(B(O)O)cc2)C1 | 0.2 |
| COCc1ccc(NC(=O)c2c(C#CCN3CCOCC3)n(C3(C)CC3)c3ncnc(N)c23)cc1 | 0.1 |
| Cc1ccccc1C(C(=O)NC1CCCCC1)N(C(=O)Cn1ccnc1C)c1cccc(F)c1 | 0.0 |
| CCc1c2c(nc3ccc(OC(=O)N4CCC(N5CCCCC5)CC4)cc13)-c1cc3c(c(=O)n1C2)COC(=O)[C@]3(O)CC | 0.0 |
| COc1nc2ccc(Br)cc2cc1[C@@H](c1ccccc1)[C@@](O)(CCN(C)C)c1cccc2ccccc12 | 0.0 |
| CC[C@H]1OC(=O)[C@H](C)[C@@H](O[C@H]2C[C@@](C)(OC)[C@@H](O)[C@H](C)O2)[C@H](C)[C@@H](O[C@@H]2O[C@H](C)C[C@H](N(C)C)[C@H]2O)[C@](C)(O)C[C@@H](C)CN[C@H](C)[C@@H](O)[C@]1(C)O | 0.0 |
| CCCCCCCCCCCCCCCCCCCCC | 0.0 |
| Nc1ccc(C#CCN(C(=O)Cc2ncc(C(F)(F)F)cc2C(F)(F)F)c2ccc(F)cc2)nn1 | 0.0 |
| N[C@H](Cc1cnc[nH]1)C(=O)O | 0.0 |
| Cn1cnc(Cn2c(=O)nc(Nc3cc4cn(C)nc4cc3Cl)n(Cc3cc(F)c(F)cc3F)c2=O)n1 | 0.0 |
| CCCN1C[C@H](C)[C@@H](O)[C@](C)(O)[C@@H](CC)OC(=O)[C@H](C)[C@@H](O[C@H]2C[C@@](C)(OC)[C@@H](O)[C@H](C)O2)[C@H](C)[C@@H](O[C@@H]2O[C@H](C)C[C@H](N(C)C)[C@H]2O)[C@](C)(O)C[C@H]1C | 0.0 |
| COP(=O)(NC(C)=O)SC | 0.0 |
| COC(=O)c1ccccc1S(=O)(=O)NC(=O)Nc1nc(C)cc(C)n1 | 0.0 |
| CCCCN(Cc1ccccc1)C(=O)c1ccc(S(=O)(=O)Nc2ccccc2)cc1 | 0.0 |
| CCCc1c(-c2ccccc2)[nH]n(-c2ccccn2)c1=O.Cl | 0.0 |
| Cc1c(COc2ccc(CN3CCCCC3C(=O)O)cc2Br)cccc1-c1ccccc1 | 0.0 |
| O=C(c1cn[nH]n1)N1CC2CCC(C1)N2S(=O)(=O)c1cccc(F)c1 | 0.0 |
| NC(=O)C1=CN(C2OC(COP(=O)([O-])OP(=O)([O-])OCC3OC(n4cnc5c(N)ncnc54)C(OP(=O)([O-])[O-])C3O)C(O)C2O)C=CC1.[Na+].[Na+].[Na+].[Na+] | 0.0 |
| N[C@@H](CC(=O)N1CCn2c(nnc2C(F)(F)F)C1)Cc1cc(F)c(F)cc1F.O=P(O)(O)O | 0.0 |
| CC(C)(O)CC(=O)NCCn1ccc2ncnc(Nc3ccc(Oc4cccc(C(F)(F)F)c4)c(Cl)c3)c21 | 0.0 |
| CCCn1c(=O)c2[nH]c(-c3ccc(OCC(=O)Nc4ccc(C#N)cc4)cc3)nc2n(CCC)c1=O | 0.0 |
| CC[C@@H](Oc1nc(Oc2cccc(-c3cccc(CN)c3)c2)c(F)cc1F)C(=O)O | 0.0 |
| C=C[C@@]1(C)Cc2occ(C)c2[C@@H]2OC(=O)C(=C)[C@@H]21 | 0.0 |
| CCC(=O)O[C@]1(C(=O)CO)CC[C@H]2[C@@H]3CCC4=CC(=O)CC[C@]4(C)[C@H]3CC[C@@]21C | 0.0 |
| CCCC(=O)O[C@H]1CN2CC[C@H](O)[C@@H]2[C@@H](O)[C@@H]1O | 0.0 |
| Cc1cc(-c2ccccc2)nnc1NCCN1CCOCC1.Cl.Cl | 0.0 |
| OC[C@H]1O[C@@H]2O[C@H]3[C@H](O)[C@@H](O)[C@@H](O[C@H]4[C@H](O)[C@@H](O)[C@@H](O[C@H]5[C@H](O)[C@@H](O)[C@@H](O[C@H]6[C@H](O)[C@@H](O)[C@@H](O[C@H]7[C@H](O)[C@@H](O)[C@@H](O[C@H]8[C@H](O)[C@@H](O)[C@@H](O[C@H]1[C@H](O)[C@H]2O)O[C@@H]8CO)O[C@@H]7CO)O[C@@H]6CO)O[C@@H]5CO)O[C@@H]4CO)O[C@@H]3CO | 0.0 |
| OC[C@H]1O[C@@H](S[C@@H]2O[C@H](CO)[C@H](O)[C@H](O)[C@H]2O)[C@H](O)[C@@H](O)[C@H]1O | 0.0 |
| CCC(=O)c1c(O)cc(O)cc1O | 0.0 |
| CCC(=O)N1CCC(NC(=O)Nc2ccc(OC(F)(F)F)cc2)CC1 | 0.0 |
| CC(=O)c1c(C)c2cnc(Nc3ccc(N4CCNCC4)cn3)nc2n(C2CCCC2)c1=O.O=S(=O)(O)CCO | 0.0 |
| CNC(=O)c1ccc2c(c1)ncn2-c1ccc(CC(=O)OC(C)(C)C)cc1 | 0.0 |
| C[C@@H](Nc1cc(F)cc(F)c1)c1cc(C(=O)N(C)C)cc2c(=O)cc(N3CCOCC3)oc12 | 0.0 |
| Cc1c(C)c2c(c(C)c1O)CCC(C)(C(=O)O)O2 | 0.0 |
| CC(=O)Nc1c(F)cc(C(=O)NC2CCC(O)CC2)cc1O[C@@H](C)c1ccccc1 | 0.0 |
| N#CCCN(C(=O)CCl)c1ccc2c(c1)OCCO2 | 0.0 |
| OCC(CO)N[C@H]1C[C@](O)(CO)[C@@H](O)[C@H](O)[C@H]1O | 0.0 |
| CC1(C)N([O-])c2cc([N+](=O)[O-])ccc2[N+]1=O | 0.0 |
| Nc1nnc(Sc2ncc([N+](=O)[O-])s2)s1 | 0.0 |
| C#CCNC(=O)C(=O)c1c(C)c(C(=O)Nc2ccc(F)c(F)c2)n(C)c1C | 0.0 |
| Cl.Cl.c1cc(-c2nc3ccc(OCCCN4CCCC4)cc3o2)ccc1OCCCN1CCCC1 | 0.0 |
| COc1ccc2c(c1)c(CC(=O)Oc1ccc(NC(C)=O)cc1)c(C)n2C(=O)c1ccc(Cl)cc1 | 0.0 |
| COc1cc(NC(=O)Cc2cccc(-n3c(=O)c4c(C)noc4c4c(Cl)cccc43)c2)cc(OC)c1OC | 0.0 |
| CC(C)c1nc(N(C)S(C)(=O)=O)nc(-c2ccc(F)cc2)c1/C=C/[C@@H](O)C[C@@H](O)CC(=O)O | 0.0 |
| CCCCCCC/C=C/C(=O)CCc1ccc(O)c(OC)c1 | 0.0 |
| COc1cc(F)c(C(C)C)cc1-c1ccc(C(F)(F)F)cc1CN1C(=O)O[C@H](c2cc(C(F)(F)F)cc(C(F)(F)F)c2)[C@@H]1C | 0.0 |
| CN(C)C/C=C/C(=O)Nc1cccc(-c2c(-c3ccccc3)oc3ncnc(N[C@H](CO)c4ccccc4)c23)c1 | 0.0 |
| CC(C)C[C@H](NC(=O)[C@H](Cc1ccccc1)NC(=O)c1cnccn1)B(O)O | 0.0 |
| Cc1cc(C#N)cnc1C(=O)Nc1ccc(F)c([C@]2(C)CO[C@@](C)(C(F)(F)F)C(N)=N2)c1 | 0.0 |
| OCc1ccc(-c2ccc(-c3ccc(CO)s3)o2)s1 | 0.0 |
| CS(=O)(=O)N1CCc2c(-c3cnc(N)nc3)nc(N3CCOCC3)nc21 | 0.0 |
| CCOC(=O)c1ccc(NC2CCCCC2)c(N)c1 | 0.0 |

Repeating the final 11 entries:

smiles	inhibition (%)
COc1ccc2c(c1)c(CC(=O)Oc1ccc(NC(C)=O)cc1)c(C)n2C(=O)c1ccc(Cl)cc1	0.0
COc1cc(NC(=O)Cc2cccc(-n3c(=O)c4c(C)noc4c4c(Cl)cccc43)c2)cc(OC)c1OC	0.0
CC(C)c1nc(N(C)S(C)(=O)=O)nc(-c2ccc(F)cc2)c1/C=C/[C@@H](O)C[C@@H](O)CC(=O)O	0.0
CCCCCCC/C=C/C(=O)CCc1ccc(O)c(OC)c1	0.0
COc1cc(F)c(C(C)C)cc1-c1ccc(C(F)(F)F)cc1CN1C(=O)O[C@H](c2cc(C(F)(F)F)cc(C(F)(F)F)c2)[C@@H]1C	0.0
CN(C)C/C=C/C(=O)Nc1cccc(-c2c(-c3ccccc3)oc3ncnc(N[C@H](CO)c4ccccc4)c23)c1	0.0
CC(C)C[C@H](NC(=O)[C@H](Cc1ccccc1)NC(=O)c1cnccn1)B(O)O	0.0
Cc1cc(C#N)cnc1C(=O)Nc1ccc(F)c([C@]2(C)CO[C@@](C)(C(F)(F)F)C(N)=N2)c1	0.0
OCc1ccc(-c2ccc(-c3ccc(CO)s3)o2)s1	0.0
CS(=O)(=O)N1CCc2c(-c3cnc(N)nc3)nc(N3CCOCC3)nc21	0.0
CCOC(=O)c1ccc(NC2CCCCC2)c(N)c1	0.0